This is an account of results in ChEMBL document CHEMBL2029214, “Radiosynthesis and evaluation of an (18)F-labeled positron emission tomography (PET) radioligand for brain histamine subtype-3 receptors based on a nonimidazole 2-aminoethylbenzofuran chemotype” (J Med Chem, 2012).

By UniProt entry, the sequences of proteins in these tests, tags left out. Where a name states a change or a piece, a line headed by the entry shows the natural chain unless it says otherwise.
UniProt Q9Y5N1: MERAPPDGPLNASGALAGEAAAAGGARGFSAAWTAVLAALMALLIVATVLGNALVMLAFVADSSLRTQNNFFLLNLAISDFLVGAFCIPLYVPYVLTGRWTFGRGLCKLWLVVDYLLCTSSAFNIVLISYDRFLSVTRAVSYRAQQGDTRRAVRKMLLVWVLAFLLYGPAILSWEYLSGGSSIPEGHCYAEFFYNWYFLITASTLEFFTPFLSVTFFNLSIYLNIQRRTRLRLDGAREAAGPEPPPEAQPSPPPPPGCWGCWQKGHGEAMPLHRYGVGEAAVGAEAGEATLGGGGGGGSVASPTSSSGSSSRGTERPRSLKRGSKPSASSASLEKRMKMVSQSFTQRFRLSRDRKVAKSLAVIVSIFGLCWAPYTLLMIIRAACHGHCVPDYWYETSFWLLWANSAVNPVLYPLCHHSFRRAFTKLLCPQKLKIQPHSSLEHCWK

In the experiment the target is Histamine H3 receptor (Homo sapiens, UniProt Q9Y5N1). In words: Binding affinity to human recombinant H3 receptor expressed in HEK293T cells. It is filed as cell-based, HEK-293T.

Broadly, the Ki is the equilibrium dissociation constant of an inhibitor or competing ligand from its target. In the case of `C[C@@H]1CCCN1CCc1cc2cc(C(=O)c3ccc(F)cc3)ccc2o1`, the inhibition constant Ki is 1.9 nM.
